Our source for the IC50 values is US20250388602A1 (Genase Therapeutics B.V., priority 2022, published 2025).

Protein sequences, listed by entry. Tags and fused reporters are not part of them. Lines headed by an entry give the natural chain unless they say otherwise; changes in a name come on top.
UniProt Q02127: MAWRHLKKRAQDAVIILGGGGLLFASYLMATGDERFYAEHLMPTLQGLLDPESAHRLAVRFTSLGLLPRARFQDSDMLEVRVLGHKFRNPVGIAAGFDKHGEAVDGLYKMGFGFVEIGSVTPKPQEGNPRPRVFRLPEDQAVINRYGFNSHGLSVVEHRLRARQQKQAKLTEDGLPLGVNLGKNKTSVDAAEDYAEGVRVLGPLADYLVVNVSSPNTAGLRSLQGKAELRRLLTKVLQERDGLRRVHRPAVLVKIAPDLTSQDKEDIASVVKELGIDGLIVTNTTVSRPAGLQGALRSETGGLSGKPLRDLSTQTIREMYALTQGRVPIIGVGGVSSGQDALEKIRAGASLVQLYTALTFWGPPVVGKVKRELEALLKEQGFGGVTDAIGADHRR

The target in this test is recombinant human DHODH (Homo sapiens (Human), UniProt Q02127). The test can be described thus: DHODH enzyme assay (Assay A), DCIP absorbance. The class given is biochemical. The method, then:
Inhibition of human dihydroorotate dehydrogenase (DHODH) by example compounds as described herein was determined using one of two assays as described below.
DHODH enzyme assays were performed with 6 nM recombinant human DHODH (purified essentially as described by Walse et al., Biochemistry, 47, 8929-8936 (2008)). The reaction mixture consisted of 1 mM DL-dihydroorotic acid (#D7003, Sigma-Aldrich), 100 μM 3,4-dimethoxy-5-methyl-p-benzoquinone (#D9150, Sigma-Aldrich), and 100 μM 2,6-dichlorophenolindophenol sodium salt (DCIP) (#D1878, Sigma-Aldrich) in enzyme buffer (50 mM Tris-HCl pH 8.0, 0.1% Triton X-100, 150 mM KCl). A stock solution of 20 mM DCIP was prepared in enzyme buffer and filtered through Whatman paper just before use. Reactions were performed in a total volume of 100 μL, consisting of 1 μL of compound, 49 μL of enzyme and 50 μL of reaction mixture. Loss in absorbance by chromogen DCIP was measured at 595 nm following a 70 minute incubation at 32° C.

A word on the IC50: it is the concentration that gives 50% inhibition. For the molecule `CN(C)C(=O)c1cccc(-n2ncc3c2COC[C@H]3NC(=O)c2ncn3c2CCCC3)c1Cl` [Ex-70, (S)—N-(1-(2-chloro-3-(dimethylcarbamoyl)phenyl)-1,4,5,7-tetrahydropyrano[3,4-c]pyrazol-4-yl)-5,6,7,8-tetrahydroimidazo[1,5-a]pyridine-1-carboxamide], the IC50 fell in the range of 10 to 100 nM.
